What was measured:
[1] = biological target: IgG1, Kappa from human myeloma (Sigma-Aldrich) (human); test: ELISA; IgG captured by F(ab')2 anti-human F(ab')2, biotinylated dimer; EC50 as IgG concentration (FIG. 3K)
[2] = biological target: IgG2, Kappa from human myeloma (Sigma-Aldrich) (human); test: as above
[3] = biological target: IgG3, Kappa from human myeloma (Sigma-Aldrich) (human); test: as above
[4] = biological target: recombinant human anti-TNP IgG1 (chimeric, TIB142 VH with human IgG1 constant region) (human); test: ELISA; anti-TNP IgG on TNP-BSA, biotinylated dimer; EC50 as IgG concentration (FIG. 3 D, L)
[5] = biological target: recombinant human anti-TNP IgG4 (chimeric, TIB142 VH with IgG4 constant region) (human); test: ELISA; anti-TNP IgG4 on TNP-BSA, biotinylated dimer; EC50 as IgG concentration (FIG. 3L)
[6] = biological target: recombinant human anti-TNP IgG4 (chimeric, TIB142 VH with IgG4 constant region) (human); test: ELISA; anti-TNP IgG4 on TNP-BSA, biotinylated dimer (FIG. 3D)
[7] = biological target: IgG1, Kappa from human myeloma (Sigma-Aldrich) (human); test: ELISA; IgG captured by anti-human F(ab')2, biotinylated dimer; EC50 as IgG concentration (FIG. 3 C, K)
[8] = biological target: IgG2, Kappa from human myeloma (Sigma-Aldrich) (human); test: as above
[9] = biological target: IgG2, Kappa from human myeloma (Sigma-Aldrich) (human); test: ELISA; IgG2 captured by F(ab')2 anti-human F(ab')2, biotinylated dimer; EC50 as IgG concentration (FIG. 3G)
[10] = biological target: IgG1, Kappa from human myeloma (Sigma-Aldrich) (human); test: ELISA; IgG1 captured by anti-human F(ab')2, biotinylated dimer; EC50 as IgG concentration
[11] = biological target: recombinant human anti-TNP IgG1 (chimeric, TIB142 VH with human IgG1 constant region) (human); test: ELISA; anti-TNP IgG1 on TNP-BSA, biotinylated dimer; EC50 as IgG concentration
rituximab [12] = test: flow cytometry; Daudi cells opsonised at 10 µg/ml mAb, biotinylated dimer (FIG. 10C)
obinutuzumab (GAZYVA) = test: ELISA; mAb captured by F(ab')2 anti-human F(ab')2, biotinylated dimer, streptavidin-HRP (FIG. 8B)
rituximab [13] = test: flow cytometry; Daudi cells opsonised with rituximab, MFI of dimer / MFI of anti-IgG (FIG. 10E)
[14] = biological target: IgG1, Kappa from human myeloma (Sigma-Aldrich) (human); test: ELISA; IgG captured by F(ab')2 anti-human F(ab')2, biotinylated dimer; EC50 as IgG concentration (FIG. 3E)
[15] = biological target: IgG3, Kappa from human myeloma (Sigma-Aldrich) (human); test: as above
[16] = biological target: IgG2, Kappa from human myeloma (Sigma-Aldrich) (human); test: ELISA; IgG captured by F(ab')2 anti-human F(ab')2, biotinylated dimer; EC50 as IgG concentration
[17] = biological target: IgG4, Kappa from human myeloma (Sigma-Aldrich) (human); test: as above

“Human rsFcγRIIa H131 dimer (from UniProt P12318 34-215) (receptor)” gave an EC50 [1] of 0.398 µg/mL, an EC50 [2] of 0.302 µg/mL and an EC50 [3] of 0.134 µg/mL. For the same substance, the EC50 [4] was 0.4 µg/mL, the EC50 [5] was 2 µg/mL and the signal relative to the anti-human F(ab')2:IgG4 IC [6] was 6 fold. The EC50 [7] was 0.28 µg/mL and the EC50 [8] was 0.19 µg/mL.
Human rsFcγRIIIa V158 dimer (receptor) was tested, and the EC50 [9] was 0.62 µg/mL, the EC50 [10] was 0.26 µg/mL and the EC50 [11] was 0.17 µg/mL. It also gave a level of binding relative to obinutuzumab opsonised cells (rituximab [12]) of 2 fold, a level of binding relative to rituximab (obinutuzumab (GAZYVA)) of 2 fold and a relative stoichiometry of FcR/IgG at 10 µg/ml relative to 0.1 µg/ml (rituximab [13]) of 5 fold.
Human rsFcγRIIIa F158 dimer (receptor) was tested, and the EC50 [10] was 0.54 µg/mL and the EC50 [11] was 0.57 µg/mL.
In the case of “Human rsFcγRIIa R131 dimer (from UniProt P12318 36-215) (receptor)”, the EC50 [14] is reported as 0.17 µg/mL, the EC50 [15] is reported as 0.44 µg/mL and the EC50 [16] is reported as 6 µg/mL. It also gave an EC50 [17] of 3 µg/mL.
